From IntAct's records for PubMed 12601044

B1: Gamma-crystallin C (Homo sapiens), P07315 (parent)
chain: MGKITFYEDRAFQGRSYETTTDCPNLQPYFSRCNSIRVESGCWMLYERPNYQGQQYLLRRGEYPDYQQWMGLSDSIRSCCLIPQTVSHRLRLYEREDHKGLMMELSEDCPSIQDRFHLSEIRSLHVLEGCWVLYELPNYRGRQYLLRPQEYRRCQDWGAMDAKAGSLRRVVDLY
partner: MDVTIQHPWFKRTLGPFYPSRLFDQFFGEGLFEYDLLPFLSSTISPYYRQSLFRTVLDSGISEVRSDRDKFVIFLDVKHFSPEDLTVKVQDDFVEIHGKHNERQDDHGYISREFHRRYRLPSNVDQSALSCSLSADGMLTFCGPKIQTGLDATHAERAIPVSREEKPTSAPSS

Variants of: B1
Settings: with cryaa_human CRYAA

effect of a mutation on the interaction | Variant
disrupting interaction | T5P
